Data: patent publication US10787436B2, “Inhibitors of cyclin-dependent kinase 7 (CDK7)” (Dana-Farber Cancer Institute, Inc., priority 2012, dated 2020)
pIC50: −log10 of the molar value.

Chains of the proteins cited; added tags and fusions are not shown. Residues count along the entry.
UniProt P50750, whole entry: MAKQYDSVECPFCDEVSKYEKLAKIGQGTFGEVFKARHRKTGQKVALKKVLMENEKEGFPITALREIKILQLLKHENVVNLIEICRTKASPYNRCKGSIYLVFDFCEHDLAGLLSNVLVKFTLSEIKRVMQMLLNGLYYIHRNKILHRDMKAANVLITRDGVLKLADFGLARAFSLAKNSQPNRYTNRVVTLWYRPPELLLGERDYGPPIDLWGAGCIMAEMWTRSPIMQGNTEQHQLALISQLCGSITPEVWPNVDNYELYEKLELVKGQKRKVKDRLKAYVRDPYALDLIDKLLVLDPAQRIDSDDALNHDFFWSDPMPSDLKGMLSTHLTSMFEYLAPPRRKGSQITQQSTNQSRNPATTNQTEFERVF
UniProt Q16584, whole entry: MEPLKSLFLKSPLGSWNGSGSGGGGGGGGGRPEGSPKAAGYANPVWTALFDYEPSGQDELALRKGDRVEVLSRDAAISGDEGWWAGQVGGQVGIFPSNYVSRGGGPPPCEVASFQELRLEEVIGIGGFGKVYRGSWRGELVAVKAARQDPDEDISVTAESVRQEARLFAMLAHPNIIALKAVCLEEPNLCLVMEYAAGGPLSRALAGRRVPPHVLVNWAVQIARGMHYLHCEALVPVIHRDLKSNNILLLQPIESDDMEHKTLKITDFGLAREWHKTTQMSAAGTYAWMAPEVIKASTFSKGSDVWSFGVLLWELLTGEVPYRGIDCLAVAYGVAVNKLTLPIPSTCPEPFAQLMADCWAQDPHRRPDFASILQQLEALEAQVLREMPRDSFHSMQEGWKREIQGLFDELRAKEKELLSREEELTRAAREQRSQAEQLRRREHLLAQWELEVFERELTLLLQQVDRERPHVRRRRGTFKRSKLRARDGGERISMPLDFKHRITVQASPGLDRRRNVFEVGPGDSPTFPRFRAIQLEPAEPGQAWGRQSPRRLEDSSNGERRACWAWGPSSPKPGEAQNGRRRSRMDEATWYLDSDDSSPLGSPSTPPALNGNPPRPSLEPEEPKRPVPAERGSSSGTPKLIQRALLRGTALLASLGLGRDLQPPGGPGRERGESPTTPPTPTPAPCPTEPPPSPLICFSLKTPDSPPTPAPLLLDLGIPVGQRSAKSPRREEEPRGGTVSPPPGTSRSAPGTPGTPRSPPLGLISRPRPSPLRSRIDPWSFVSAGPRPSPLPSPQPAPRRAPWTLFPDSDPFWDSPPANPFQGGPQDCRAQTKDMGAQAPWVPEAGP
UniProt Q00535, whole entry: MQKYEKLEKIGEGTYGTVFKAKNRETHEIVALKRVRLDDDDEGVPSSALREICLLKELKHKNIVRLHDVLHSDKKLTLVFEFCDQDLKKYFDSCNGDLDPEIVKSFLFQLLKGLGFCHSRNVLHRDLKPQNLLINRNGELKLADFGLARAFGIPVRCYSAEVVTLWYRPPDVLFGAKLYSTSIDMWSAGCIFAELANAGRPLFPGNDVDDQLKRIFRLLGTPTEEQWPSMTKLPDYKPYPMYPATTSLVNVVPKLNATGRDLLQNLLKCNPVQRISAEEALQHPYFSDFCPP
UniProt P50613, 2-346 limits assumed: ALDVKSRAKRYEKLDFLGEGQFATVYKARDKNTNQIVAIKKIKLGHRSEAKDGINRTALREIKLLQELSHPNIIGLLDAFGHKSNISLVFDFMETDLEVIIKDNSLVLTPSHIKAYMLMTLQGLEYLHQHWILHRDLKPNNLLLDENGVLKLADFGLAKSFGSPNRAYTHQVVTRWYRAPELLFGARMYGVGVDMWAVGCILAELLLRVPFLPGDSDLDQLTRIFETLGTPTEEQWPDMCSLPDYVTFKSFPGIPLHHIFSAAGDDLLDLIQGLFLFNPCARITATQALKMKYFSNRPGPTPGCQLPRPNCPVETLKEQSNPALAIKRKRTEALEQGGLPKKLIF
UniProt Q15078, 99-307 partner limits assumed: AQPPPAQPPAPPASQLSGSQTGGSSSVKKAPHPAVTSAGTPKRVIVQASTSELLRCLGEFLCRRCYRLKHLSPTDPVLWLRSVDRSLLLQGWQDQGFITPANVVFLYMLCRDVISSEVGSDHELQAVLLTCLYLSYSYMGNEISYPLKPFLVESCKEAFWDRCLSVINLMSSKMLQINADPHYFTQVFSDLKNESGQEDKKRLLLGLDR
UniProt O60563, whole entry partner: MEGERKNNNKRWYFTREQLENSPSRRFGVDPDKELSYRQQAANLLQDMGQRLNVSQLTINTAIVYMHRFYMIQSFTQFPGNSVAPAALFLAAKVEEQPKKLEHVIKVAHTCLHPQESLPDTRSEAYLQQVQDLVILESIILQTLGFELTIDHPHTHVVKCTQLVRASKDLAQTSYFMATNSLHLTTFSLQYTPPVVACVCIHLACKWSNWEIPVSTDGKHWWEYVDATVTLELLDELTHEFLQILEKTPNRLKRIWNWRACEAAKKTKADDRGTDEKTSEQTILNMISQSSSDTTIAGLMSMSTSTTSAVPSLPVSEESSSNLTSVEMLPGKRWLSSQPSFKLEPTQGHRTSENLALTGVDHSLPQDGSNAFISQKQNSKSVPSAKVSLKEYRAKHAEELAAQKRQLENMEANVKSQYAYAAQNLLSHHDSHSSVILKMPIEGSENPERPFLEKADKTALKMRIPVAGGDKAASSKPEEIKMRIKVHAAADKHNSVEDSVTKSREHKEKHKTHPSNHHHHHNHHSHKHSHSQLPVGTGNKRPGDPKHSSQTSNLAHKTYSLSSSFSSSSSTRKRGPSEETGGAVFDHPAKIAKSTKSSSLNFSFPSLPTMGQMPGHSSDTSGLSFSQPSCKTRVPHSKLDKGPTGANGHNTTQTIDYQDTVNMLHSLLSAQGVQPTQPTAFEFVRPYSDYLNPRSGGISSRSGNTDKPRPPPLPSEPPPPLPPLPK

Tests used:
CDK2/cyclin A = CDK2/cyclin A (Homo sapiens (Human), UniProt P24941); experiment: Life Technologies Z'-Lyte kinase assay, CDK2; type: biochemical; conditions: read-out: Calculated IC50, CDK2/cyclin A
CDK9/cyclin T1 = CDK9/cyclin T1 (Homo sapiens (Human), UniProt P50750); experiment: Life Technologies Adapta kinase assay, CDK9/cyclin T1; type: biochemical; conditions: read-out: Calculated IC50, CDK9/cyclin T1
MLK3 = MLK3 (Homo sapiens (Human), UniProt Q16584); experiment: Life Technologies LanthaScreen Eu kinase assay, MLK3; type: binding; conditions: read-out: Calculated IC50, MLK3
CDK5/p25 = CDK5/p25 (Homo sapiens (Human), UniProt Q00535); experiment: Life Technologies Z'-Lyte kinase assay, CDK5/p25; type: biochemical; conditions: read-out: Calculated IC50, CDK5/p25
MCF10A = experiment: Proliferation assay, CellTiter-Glo, 72 hour; type: cell-based; conditions: read-out: Inhibition of proliferation, MCF10A, non-tumorigenic breast epithelial cell line
SK-ES = experiment: Proliferation assay, CellTiter-Glo, 72 hour; type: cell-based; conditions: read-out: Inhibition of proliferation, SK-ES, Ewing's sarcoma cell line
SKBR3 = experiment: Proliferation assay, CellTiter-Glo, 72 hour; type: cell-based; conditions: read-out: Inhibition of proliferation, SKBR3, breast cancer cell line
THP-1 = experiment: Proliferation assay, CellTiter-Glo, 72 hour; type: cell-based; conditions: read-out: Inhibition of proliferation, THP-1, blood cancer cell line
Hs863T = experiment: Proliferation assay, CellTiter-Glo, 72 hour; type: cell-based; conditions: read-out: Inhibition of proliferation, Hs863T, Ewing's sarcoma cell line
MV4-11 = experiment: Proliferation assay, CellTiter-Glo, 72 hour; type: cell-based; conditions: read-out: Inhibition of proliferation, MV4-11, blood cancer cell line
T47D = experiment: Proliferation assay, CellTiter-Glo, 72 hour; type: cell-based; conditions: read-out: Inhibition of proliferation, T47D, breast cancer cell line
Hs822T = experiment: Proliferation assay, CellTiter-Glo, 72 hour; type: cell-based; conditions: read-out: Inhibition of proliferation, Hs822T, Ewing's sarcoma cell line
SAOS = experiment: Proliferation assay, CellTiter-Glo, 72 hour; type: cell-based; conditions: read-out: Inhibition of proliferation, SAOS, osteosarcoma cell line
MCF7 = experiment: Proliferation assay, CellTiter-Glo, 72 hour; type: cell-based; conditions: read-out: Inhibition of proliferation, MCF7, breast cancer cell line
MDA-MB231 = experiment: Proliferation assay, CellTiter-Glo, 72 hour; type: cell-based; conditions: read-out: Inhibition of proliferation, MDA-MB231, breast cancer cell line
MNNG-HOS Cl#5 = experiment: Proliferation assay, CellTiter-Glo, 72 hour; type: cell-based; conditions: read-out: Inhibition of proliferation, MNNG-HOS Cl#5, osteosarcoma cell line
HL60 = experiment: Proliferation assay, CellTiter-Glo, 72 hour; type: cell-based; conditions: read-out: Inhibition of proliferation, HL60, blood cancer cell line
RD-ES = experiment: Proliferation assay, CellTiter-Glo, 72 hour; type: cell-based; conditions: read-out: Inhibition of proliferation, RD-ES, Ewing's sarcoma cell line
RS4-11 = experiment: Proliferation assay, CellTiter-Glo, 72 hour; type: cell-based; conditions: read-out: Inhibition of proliferation, RS4-11, blood cancer cell line
hTERT-HME1 = experiment: Proliferation assay, CellTiter-Glo, 72 hour; type: cell-based; conditions: read-out: Inhibition of proliferation, hTERT-HME1, immortalized normal mammary epithelial cell line
A673 = experiment: Proliferation assay, CellTiter-Glo, 72 hour; type: cell-based; conditions: read-out: Inhibition of proliferation, A673, Ewing's sarcoma cell line
143B = experiment: Proliferation assay, CellTiter-Glo, 72 hour; type: cell-based; conditions: read-out: Inhibition of proliferation, 143B, osteosarcoma cell line
CDK7 = CDK7 (Homo sapiens (Human), UniProt P50613); experiment: Life Technologies Adapta kinase assay, CDK7 (cyclin H and MNAT1); type: biochemical; conditions: read-out: Calculated IC50, CDK7; 10 μM down to 0.514 nM, 3-fold serial dilutions

Cc1ccc(Nc2ncc(Cl)c(-c3c[nH]c4ccccc34)n2)cc1NC(=O)c1ccc(NC(=O)/C=C/CN(C)C)cc1
pIC50 (CDK2/cyclin A): < 6.00 | pIC50 (CDK9/cyclin T1): 6.00 to 7.00 | pIC50 (MLK3): 6.00 to 7.00 | pIC50 (CDK5/p25): < 6.00 | pIC50 (MCF10A): > 6.30 | pIC50 (SK-ES): > 6.30 | pIC50 (SKBR3): 5.30 to 6.30 | pIC50 (THP-1): > 6.30 | pIC50 (Hs863T): 5.30 to 6.30 | pIC50 (MV4-11): > 6.30 | pIC50 (T47D): 5.30 to 6.30 | pIC50 (Hs822T): > 6.30 | pIC50 (SAOS): > 6.30 | pIC50 (MCF7): > 6.30 | pIC50 (MDA-MB231): > 6.30 | pIC50 (MNNG-HOS Cl#5): 5.30 to 6.30 | pIC50 (HL60): > 6.30 | pIC50 (RD-ES): > 6.30 | pIC50 (RS4-11): > 6.30 | pIC50 (hTERT-HME1): > 6.30 | pIC50 (A673): > 6.30 | pIC50 (143B): 5.30 to 6.30

O=C(/C=C/CO)Nc1ccc(S(=O)(=O)Nc2cccc(Nc3ncc(Cl)c(-c4c[nH]c5ccccc45)n3)c2)cc1
pIC50 (MLK3): 6.00 to 7.00 | pIC50 (CDK5/p25): 6.00 to 7.00 | pIC50 (CDK7): > 7.00
